Columns and labels:
AXL kinase = AXL kinase (Homo sapiens, UniProt P30530); experiment: Inhibitory activity of compound against AXL kinase (HTRF KinEASE); format: biochemical; conditions: read-out: Inhibitory activity IC50 (nM) against AXL; AXL enzyme (Carna, 08-107), ATP 15 μM; "<" means below detection limit of the test
[1] = test system: MV-4-11 (human myeloid monocytic leukemia cell line); experiment: Proliferation inhibition activity of compounds to MV-4-11 cells (CellTiter-Glo); conditions: read-out: IC50 (MV4-11), MV4-11 cells, 72 h dosing
[2] = Pharmacokinetic study of compounds on ICR mice; conditions: male ICR mice, 10 mg-kg^1 by gavage, plasma

By UniProt entry, the sequences of proteins in these tests, tags left out. Residues count along the entry.
UniProt P30530, 473-894 limits assumed: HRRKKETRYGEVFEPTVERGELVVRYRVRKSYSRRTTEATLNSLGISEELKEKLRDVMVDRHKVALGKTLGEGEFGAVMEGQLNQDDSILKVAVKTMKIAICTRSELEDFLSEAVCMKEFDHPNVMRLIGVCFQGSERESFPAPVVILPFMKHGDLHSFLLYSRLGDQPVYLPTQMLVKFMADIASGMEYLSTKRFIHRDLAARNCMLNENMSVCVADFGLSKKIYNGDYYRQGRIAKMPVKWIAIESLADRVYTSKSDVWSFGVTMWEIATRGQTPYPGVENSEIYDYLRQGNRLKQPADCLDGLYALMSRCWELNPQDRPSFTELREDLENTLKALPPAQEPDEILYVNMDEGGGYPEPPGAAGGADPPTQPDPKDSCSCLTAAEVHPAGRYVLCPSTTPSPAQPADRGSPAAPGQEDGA

IC50 (AXL kinase) [nM] | IC50 [1] [nM] | AUC0-24 [2] [µg·h/mL] | Cmax [2] [µg/mL] | T1/2 [2] [h] | Tmax [2] [h] | Structure (SMILES)
0.71 | 3.51 |  |  |  |  | CP(C)(=O)c1cc(Cl)ccc1Nc1nc(Nc2ccc3c(c2)CC[C@@H](N2C[C@@H]4C[C@H]2CO4)CC3)ncc1Cl (single isomer, unassigned)
1.09 | 5.42 |  |  |  |  | CP(C)(=O)c1cc(OC2CC2)ccc1Nc1nc(Nc2ccc3c(c2)CC[C@@H](N2CC4CC2C4)CC3)ncc1Cl (single isomer, unassigned)
1.23 | 9.38 |  |  |  |  | Cc1ccc(Nc2nc(Nc3ccc4c(c3)CCC(N3CC5CC3C5)CC4)ncc2Cl)c(P(C)(C)=O)c1 (single isomer, unassigned)
1.88 |  | 0.822 | 0.171 | 4.04 | 0.50 | CP(C)(=O)c1cc(F)ccc1Nc1nc(Nc2ccc3c(c2)CCC(N2CCC4CC42)CC3)ncc1Cl (single isomer, unassigned) [Example 58 Isomer 58-1]
6.45 |  | 0.549 | 0.278 | 3.06 | 0.25 | CP(C)(=O)c1cc(F)ccc1Nc1nc(Nc2ccc3c(c2)CCC(N2CCC4CC42)CC3)ncc1Cl (single isomer, unassigned) [Example 58 Isomer 58-2]
1.39 |  | 2.38 | 0.695 | 2.90 | 0.25 | CP(C)(=O)c1cc(F)ccc1Nc1nc(Nc2ccc3c(c2)CCC(N2CC4CC4C2)CC3)ncc1Cl (single isomer, unassigned) [Example 59 Isomer 59-1]
1.65 |  | 0.857 | 0.572 | 1.55 | 0.50 | CP(C)(=O)c1cc(F)ccc1Nc1nc(Nc2ccc3c(c2)CCC(N2CC4CC2C4)CC3)ncc1Cl (single isomer, unassigned) [Example 60 Isomer 60-1]
1.12 | 3.5 |  |  |  |  | CP(C)(=O)c1cc(F)ccc1Nc1nc(Nc2ccc3c(c2)CCC(N2CCC4(CC4)C2)CC3)ncc1Cl (single isomer, unassigned) [Example 62 Isomer 62-2]
1.93 | 7.02 |  |  |  |  | CP(C)(=O)c1cc(F)ccc1Nc1nc(Nc2ccc3c(c2)CCC(N2CC4CC2CO4)CC3)ncc1Cl (single isomer, unassigned) [Example 63 Isomer 63-1]
1.35 | 3.46 |  |  |  |  | Cc1ccc(Nc2nc(Nc3ccc4c(c3)CCC(N3CCC5(CC5)C3)CC4)ncc2Cl)c(P(C)(C)=O)c1 (single isomer, unassigned) [Example 69 Isomer 69-1]
0.26 | 7.74 |  |  |  |  | Cc1ccc(Nc2nc(Nc3ccc4c(c3)CCC(N3CC5CC5C3)CC4)ncc2Cl)c(P(C)(C)=O)c1 (single isomer, unassigned) [Example 71 Isomer 71-1]
0.98 | 2.55 |  |  |  |  | CP(C)(=O)c1cc(OC(F)F)ccc1Nc1nc(Nc2ccc3c(c2)CCC(N2C4COCC2C4)CC3)ncc1Cl (single isomer, unassigned) [Example 84 Isomer 84-1]
0.73 | 1.93 |  |  |  |  | CP(C)(=O)c1cc(OC(F)F)ccc1Nc1nc(Nc2ccc3c(c2)CCC(N2C4CCC2COC4)CC3)ncc1Cl (single isomer, unassigned) [Example 85 Isomer 85-1]
1.57 | 2.91 |  |  |  |  | CP(C)(=O)c1cc(C#N)ccc1Nc1nc(Nc2ccc3c(c2)CCC(N2CC4CC2C4)CC3)ncc1Cl (single isomer, unassigned) [Example 86 Isomer 86-2]
0.53 | 3.78 |  |  |  |  | CP(C)(=O)c1cc(C#N)ccc1Nc1nc(Nc2ccc3c(c2)CCC(N2C4COCC2C4)CC3)ncc1Cl (single isomer, unassigned) [Example 87 Isomer 87-1]
0.55 | 2.06 |  |  |  |  | CP(C)(=O)c1cc(C#N)ccc1Nc1nc(Nc2ccc3c(c2)CCC(N2C4CCC2COC4)CC3)ncc1Cl (single isomer, unassigned) [Example 88 Isomer 88-2]
0.77 | 2.99 |  |  |  |  | Cc1ccc(Nc2nc(Nc3ccc4c(c3)CCC(N3C5COCC3C5)CC4)ncc2Cl)c(P(C)(C)=O)c1 (single isomer, unassigned) [Example 89 Isomer 89-1]
0.57 | 2.94 |  |  |  |  | Cc1ccc(Nc2nc(Nc3ccc4c(c3)CCC(N3C5CCC3COC5)CC4)ncc2Cl)c(P(C)(C)=O)c1 (single isomer, unassigned) [Example 90 Isomer 90-1]
1.56 | 2.25 |  |  |  |  | CP(C)(=O)c1cc(F)ccc1Nc1nc(Nc2ccc3c(c2)CCC(N2C4COCC2C4)CC3)ncc1Cl (single isomer, unassigned) [Example 91 Isomer 91-1]
1.42 | 2.01 |  |  |  |  | CP(C)(=O)c1cc(F)ccc1Nc1nc(Nc2ccc3c(c2)CCC(N2C4CCC2COC4)CC3)ncc1Cl (single isomer, unassigned) [Example 92 Isomer 92-1]
1.08 | 2.65 |  |  |  |  | CP(C)(=O)c1cc(Cl)ccc1Nc1nc(Nc2ccc3c(c2)CCC(N2C4COCC2C4)CC3)ncc1Cl (single isomer, unassigned) [Example 93 Isomer 93-1]
0.68 | 2.42 |  |  |  |  | CP(C)(=O)c1cc(Cl)ccc1Nc1nc(Nc2ccc3c(c2)CCC(N2C4CCC2COC4)CC3)ncc1Cl (single isomer, unassigned) [Example 94 Isomer 94-1]
1.16 | 5.19 |  |  |  |  | CP(C)(=O)c1cc(OC(F)(F)F)ccc1Nc1nc(Nc2ccc3c(c2)CCC(N2CC4CC2C4)CC3)ncc1Cl (single isomer, unassigned) [Example 102 Isomer 102-1]
1.34 | 6.24 |  |  |  |  | CP(C)(=O)c1cc(OC(F)(F)F)ccc1Nc1nc(Nc2ccc3c(c2)CCC(N2C[C@H]4C[C@@H]2CO4)CC3)ncc1Cl (single isomer, unassigned) [Example 103 Isomer 103-1]
1.33 | 7.21 |  |  |  |  | CP(C)(=O)c1cc(OC(F)(F)F)ccc1Nc1nc(Nc2ccc3c(c2)CCC(N2C[C@@H]4C[C@H]2CO4)CC3)ncc1Cl (single isomer, unassigned) [Example 104 Isomer 104-1]
0.86 | 2.16 |  |  |  |  | CP(C)(=O)c1cc(Cl)ccc1Nc1nc(Nc2ccc3c(c2)CCC(N2C[C@H]4C[C@@H]2CO4)CC3)ncc1Cl (single isomer, unassigned) [Example 105 Isomer 105-1]

— patent publication US20230227484A1, “PYRIMIDINE COMPOUND AS AXL INHIBITOR” (NANJING CHIA TAI TIANQING PHARMACEUTICAL CO., LTD., priority 2020, published 2023)
